Assay results taken from publication PMC4740242 (Cell reports, 2016).

Chains of the proteins cited; added tags and fusions are not shown. Residues count along the entry.
UniProt P10721, 26-976 V559D/V654A: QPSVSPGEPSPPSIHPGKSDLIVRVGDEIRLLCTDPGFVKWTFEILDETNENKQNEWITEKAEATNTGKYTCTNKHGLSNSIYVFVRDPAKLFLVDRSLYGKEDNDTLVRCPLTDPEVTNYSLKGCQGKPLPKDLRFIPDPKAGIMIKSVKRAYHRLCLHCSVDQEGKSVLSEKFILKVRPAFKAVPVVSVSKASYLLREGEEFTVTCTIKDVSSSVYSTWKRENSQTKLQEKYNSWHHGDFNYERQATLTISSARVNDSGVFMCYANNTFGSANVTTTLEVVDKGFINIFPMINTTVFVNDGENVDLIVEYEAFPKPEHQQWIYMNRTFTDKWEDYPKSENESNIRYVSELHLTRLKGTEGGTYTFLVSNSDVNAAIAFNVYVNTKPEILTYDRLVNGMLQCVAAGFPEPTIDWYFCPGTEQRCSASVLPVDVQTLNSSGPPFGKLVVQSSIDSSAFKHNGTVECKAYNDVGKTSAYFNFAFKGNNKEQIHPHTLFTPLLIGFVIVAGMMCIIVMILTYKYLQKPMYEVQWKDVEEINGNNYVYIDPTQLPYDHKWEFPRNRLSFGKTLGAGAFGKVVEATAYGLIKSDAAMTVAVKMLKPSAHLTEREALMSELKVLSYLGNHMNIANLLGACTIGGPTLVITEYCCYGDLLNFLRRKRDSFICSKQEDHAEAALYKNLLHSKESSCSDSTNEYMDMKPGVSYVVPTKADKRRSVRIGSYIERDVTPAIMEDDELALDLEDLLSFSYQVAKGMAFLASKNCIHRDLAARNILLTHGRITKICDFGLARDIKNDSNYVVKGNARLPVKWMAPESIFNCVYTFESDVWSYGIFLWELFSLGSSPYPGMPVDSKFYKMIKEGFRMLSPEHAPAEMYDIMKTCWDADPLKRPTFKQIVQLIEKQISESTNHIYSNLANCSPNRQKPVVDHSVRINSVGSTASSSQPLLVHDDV

Target: C-KIT V559D/V654A (Homo sapiens, UniProt P10721, V559D/V654A)
Experiment: HotSpot kinase assay, C-KIT V559D/V654A
Type: biochemical
Conditions: at 500 nM

Cc1ccc(NC(=O)c2ccc(CN3CCN(C)CC3)cc2)cc1Nc1nc(-c2cccnc2)cs1 [masitinib]
kinase inhibition (in words): moderate kinase inhibition
